In the assay the target is Yck2 (Candida albicans, UniProt A0A1D8PKB4).

Chains of the proteins cited; added tags and fusions are not shown. Residues count along the entry.
UniProt A0A1D8PKB4, 37-345 limits assumed: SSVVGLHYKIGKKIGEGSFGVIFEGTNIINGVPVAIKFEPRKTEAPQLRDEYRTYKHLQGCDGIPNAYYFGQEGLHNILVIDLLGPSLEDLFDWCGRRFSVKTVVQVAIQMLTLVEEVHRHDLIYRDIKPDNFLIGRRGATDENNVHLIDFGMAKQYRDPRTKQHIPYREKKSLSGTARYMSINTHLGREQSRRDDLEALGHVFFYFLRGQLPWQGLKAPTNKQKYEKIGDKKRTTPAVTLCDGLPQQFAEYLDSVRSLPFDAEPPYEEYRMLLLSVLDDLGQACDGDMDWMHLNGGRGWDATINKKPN

pIC50: −log10 of the molar value.

As for `Oc1ccc2c(-c3ccncc3)c(-c3ccc(F)cc3)nn2c1`, the pIC50 (as a rule, the negative decadic logarithm of the IC50, by convention in mol/L) was 7.00.

With `Oc1ccn2nc(-c3ccc(F)cc3)c(-c3ccncc3)c2c1`, the pIC50 was 6.96.

For the origin of these results see article PMC11760248 (Research Square, 2025).
